For the data set, the system named is control mice. Description: Tofacitinib-treated control mice: health and body weight. Conditions: throughout the study. In kind it is in vivo.

SMILES strings stand for the structures.

In the case of `C[C@@H]1CCN(C(=O)CC#N)C[C@@H]1N(C)c1ncnc2[nH]ccc12` [tofacitinib], the “health and body weight of treated control mice” value is “stayed healthy and maintained their body weight”.

The values above are taken from US20220339156A1, “COMPOSITIONS AND METHODS FOR TREATMENT OF DISORDERS ASSOCIATED WITH CLEC16A DYSFUNCTION OR LOSS” (THE CHILDREN'S HOSPITAL OF PHILADELPHIA, priority 2019, published 2022).
